# Antibody variant affinities, Ab-14 heavy chain, assay B

Source: Li et al. 2023 (doi:10.1038/s41467-023-39022-2), MIT Lincoln Laboratory and A-Alpha Bio; data file from the FLAb repository.

Target peptide (SARS-CoV-2 spike, HR2 region): PDVDLGDISGINAS

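The parent was found by panning a naive human phage display library on the peptide. These sequences belong to a second round, designed from the earlier measurements on random variants of the parent. Group labels follow the data file (Ctrl: baseline library sampled from a position-specific scoring matrix, with some repeated check sequences; Rand: our label for a block that the file lists under HC and that is probably the random mutants of the ten best first-round binders; En: ensemble of fine-tuned language models; GP: Gaussian process model; GPLM: also part of the Gaussian process libraries; HC: hill climbing; Gen: genetic algorithm; Gibbs: Gibbs sampling; a sequence that several methods proposed may carry one label only). AlphaSeq pools MATa yeast showing the antibodies with MATalpha yeast showing the peptide. Pairs that bind mate more often; barcode pairs of the diploids are counted by sequencing. The ratio of observed to expected reads was calibrated, replicate by replicate, on BCL2-family standards whose Kd was known from biolayer interferometry. There are six technical replicates.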

Ab-14 is the parent antibody, in scFv form: VH, then three GGGGS repeats, then VL. The light chain is unchanged in all variants.
VH: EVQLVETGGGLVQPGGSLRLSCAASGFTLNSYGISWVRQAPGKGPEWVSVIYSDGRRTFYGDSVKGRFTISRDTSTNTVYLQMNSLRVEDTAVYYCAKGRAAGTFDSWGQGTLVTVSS
VL: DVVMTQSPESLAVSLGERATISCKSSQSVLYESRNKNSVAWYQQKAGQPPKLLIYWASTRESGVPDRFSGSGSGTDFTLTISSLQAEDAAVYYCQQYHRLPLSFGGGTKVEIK

Variants are written as CDR1, CDR2 and CDR3 of the heavy chain (limits as in the source). Parent: GFTLNSYGIS, VIYSDGRRTFYGDSVK, GRAAGTFDS. Each Kd is an estimate from the mating assay, the geometric mean of the replicates in which the pair was seen; lower is stronger. Where no diploid with the target was found in any replicate, the entry reads "not detected": below detection, most likely a poor binder, though not proof of it. Of ten entries with the parent sequence, four were seen in most replicates (averages 2.2 nM to 240 nM), three in one and three in none, so single entries are noisy.

| # | CDR-H1 | CDR-H2 | CDR-H3 | group | Kd | detected |
|---|---|---|---|---|---|---|
| 1 | GFFLNSYCIS | VIYSDGRNTFYGDSVK | GRAAGWFNS | Rand | not detected | 0/6 |
| 2 | GDGLQEYGIS | VIYADGFRTSYANDVK | GTAAGGFMV | En_Gibbs | not detected | 0/6 |
| 3 | GFTLNDYGIS | VIYADGRRTFYGDSVK | GKMAKTGDS | Ctrl | not detected | 0/6 |
| 4 | GFTLRSYGIS | VIYRDGRRTFYKDSVK | GIAAGTFES | Ctrl | not detected | 0/6 |
| 5 | GFTLNSYGIS | VIYSDGYRTFYGDSVK | GQAAGTMDS | Ctrl | 54 nM | 4/6 |
| 6 | GFNLNSYGIS | VIYSDGRRTFYGDSVK | GRAAGTFDC | Ctrl | not detected | 0/6 |
| 7 | GFQLNEYGIS | VIYSDGRRTFYDDSVK | GRAAGTFDS | GP_HC | 1.9 nM | 6/6 |
| 8 | GFDLDEYGIS | VIYADGRRTAYSDDVK | GENAGTFDV | En_Gen | 560 pM | 6/6 |
| 9 | GFTLNSYGIS | VIYSDGIRTMYNDSVK | GRAAGSFDS | Ctrl | not detected | 0/6 |
| 10 | GFQLNSYGIS | VIYSDGRRTFYADSVK | GRTAGTFDS | GPLM_Gen | 3.2 nM | 6/6 |
| 11 | GFDLNEYGIS | VIYADGKRTAYSDSVK | GNVAGTFDA | En_Gen | 230 pM | 6/6 |
| 12 | GEHLNSYGIS | VIYSDGRRTFYGDSVK | GMEAGTFDT | Ctrl | 230 nM | 5/6 |
| 13 | GFDLNEYGIS | VIYADGRRSFYADSVK | GNNAGTFDV | En_HC | 300 pM | 6/6 |
| 14 | GFTLNSYGIS | VIYSDGRRTFYGDSVK | ESAAGTFDS | Ctrl | not detected | 0/6 |
| 15 | GFTLNSYGIS | VIYSDGRRTFYGDSVK | GWAKGTFDS | Ctrl | 260 nM | 5/6 |
| 16 | GFSLDEYGIS | VIYADGQRTFYADSVK | GNVAGTFDS | En_HC | 72 pM | 6/6 |
| 17 | GQNLEEYGIS | VIYADGKRNAYSNNVK | GQGGAVLVD | En_Gibbs | 7.9 nM | 1/6 |
| 18 | GFYLNEYGIS | VIYSDGRRTFYGDSVK | GRTAGTFDK | GP_Gen | not detected | 0/6 |
| 19 | GFALNEYGIS | VIYADGIRSVYANKVK | GNQAGTLLI | En_Gibbs | not detected | 0/6 |
| 20 | GFTLNSYGIS | VIYSDGKRTFYGDSVK | GRNAGTFDS | GPLM_Gen | 57 nM | 5/6 |
| 21 | GFNLNEYGIS | VIYADGKRTFYIDGVK | GTWYVFGMG | En_Gibbs | not detected | 0/6 |
| 22 | GFDLNSYGIS | VIYSDGRRTFYADQVK | GRQAGTFDS | GP_Gibbs | not detected | 0/6 |
| 23 | GFTLNSYGIS | VIYSDGRRTQYGDSVK | GRAAGTIDY | Ctrl | not detected | 0/6 |
| 24 | GFTLNSYGIS | VIYSDGRRTFYGDSVK | GRAPGTFDT | Ctrl | not detected | 0/6 |
| 25 | GFNLDEYGIS | VIYADGMRTAYTDSVK | GNVAGTFDV | En_Gen | 570 pM | 6/6 |
| 26 | GFHLNSYGIS | VIYSDGRRTFYADSVK | GREAGTFDT | GPLM_Gibbs | 340 pM | 6/6 |
| 27 | GFDLNSYGIS | VIYSDGRRTFYGDSVK | GKRAGTFDS | GPLM_Gen | 11 nM | 6/6 |
| 28 | KFTLNEYGIS | VIYSDGRRTFYTDSVK | GRYAGTFDS | GP_HC | 7.3 nM | 1/6 |
| 29 | GFDLDEYGIS | VIYADGCRVSYANTVK | GLLGKLVVV | En_Gibbs | not detected | 0/6 |
| 30 | GFDLNEYGIS | VIYADGRRTFYADSVK | GTSAGTFDQ | En_HC | 290 pM | 6/6 |
| 31 | GFTLNSYGIS | VIYSDGWRTFYTDSVK | GRTAGTFDS | GP_Gibbs | 78 nM | 5/6 |
| 32 | GFDLNEYGIS | VIYADGMRTAYADNVK | GKVAGTFDV | En_Gen | 3.6 nM | 6/6 |
| 33 | GFTLNEYGIS | VIYSDGRRTFYGDSVK | GKAAGTFDV | GP_Gen | 380 pM | 6/6 |

Continued, with the values leading:

| # | Kd | detected | CDR-H1 | CDR-H2 | CDR-H3 | group |
|---|---|---|---|---|---|---|
| 34 | 26 nM | 1/6 | GFTLLSYGIS | VIYSDGRRTFYDDSVK | GKLAGTFDS | GPLM_HC |
| 35 | not detected | 0/6 | GFDLEKYGIS | VIYADGRRSVYADNVK | GMDGATFGF | En_Gibbs |
| 36 | 290 nM | 2/6 | LFTINSYGIS | VIYSDGRRTFYGDSVK | GKAAGTFDL | Ctrl |
| 37 | 180 pM | 6/6 | GFDLDEYGIS | VIYADGQRTAYSDSVK | GQVAGTFDV | En_Gen |
| 38 | not detected | 0/6 | GDSLEEYGIS | VIYADGSRTSYQESVK | GLYAGMLDV | En_Gibbs |
| 39 | 9.3 nM | 6/6 | GFDLNEYGIS | VIYADGSRTAYIDSVK | GNVAGTFDQ | En_Gen |
| 40 | 43 nM | 6/6 | GFTLNSYGIS | VIYSDGRRTFYKDSVK | GQAAGTFDS | GPLM_Gen |
| 41 | 2.8 nM | 6/6 | GFDLNSYGIS | VIYSDGRRTFYADDVK | GRNAGTFDS | GP_Gen |
| 42 | 670 pM | 6/6 | GFDLDEYGIS | VIYADGVRTAYSDSVK | GENAGTFDT | En_Gen |
| 43 | 540 pM | 6/6 | GFSLNDYGIS | VIYSDGRRTFYADSVK | GRNAGTFDS | GPLM_Gen |
| 44 | 2.5 nM | 6/6 | GFNLNSYGIS | VIYSDGLRTFYADSVK | GRAAGTFDS | GP_HC |
| 45 | not detected | 0/6 | GFTLNEYGIS | VIYSDGRRTFYHDSVK | GRAAGKFDS | GP_HC |
| 46 | 4.5 nM | 5/6 | GFDLNSYGIS | VIYSDGRRTFYGDSVK | GRAAGSFWS | GP_HC |
| 47 | 590 pM | 6/6 | GFTLNEYGIS | VIYSDGRRTFYRDDVK | GRTAGTFDS | GP_HC |
| 48 | 36 nM | 3/6 | GFELNSYGIS | VIYSDGHRTFYGDSVK | GRQAGTFDS | GP_Gibbs |
| 49 | 1.8 nM | 6/6 | KFSLNCYGIS | VIYSDGRRTFYGDSVK | GKTAGTFDS | GP_Gibbs |
| 50 | 10 nM | 6/6 | GFTLNSYGIS | VIYSDGRRTFYSDSVK | GFAAGTFDS | GPLM_HC |
| 51 | not detected | 0/6 | GKSLEEYGIS | VIYADGQRNAYAETVK | GNNGGVFGY | En_Gibbs |
| 52 | 400 pM | 6/6 | GFDLNEYGIS | VIYADGQRTFYADSVK | GQNAGTFDI | En_Gen |
| 53 | 34 nM | 6/6 | GFNINSYGIS | VIYSDGRRTFYGDSVK | GDHAGTFDT | Ctrl |
| 54 | not detected | 0/6 | GFTLNSYGIS | VIYSDGRRTFYGDSVK | VDAAGTFDS | Ctrl |
| 55 | not detected | 0/6 | GFDLDEYGIS | VIYADGIRSVYHDSVK | GTGGGTIEA | En_Gibbs |
| 56 | 25 nM | 6/6 | GFTLNEYGIS | VIYSDGRRTFYGDSVK | GRFAGTFDD | GP_HC |
| 57 | 810 pM | 6/6 | GFDLNMYGIS | VIYSDGRRTFYHDSVK | GQTAGTFDS | GP_Gibbs |
| 58 | not detected | 0/6 | GFTLNSYGIS | VIYSDGRRTFYGDSVK | GRNAGTFTS | Ctrl |
| 59 | 21 nM | 4/6 | GFTLNSYGIS | VIYSDGYRTFYGDSVK | GRVAGTFDS | Ctrl |
| 60 | 10 nM | 5/6 | GFDIDEYGIS | VIYADGIRQFYQDKVK | GNVGGMFDT | En_Gibbs |
| 61 | 58 nM | 5/6 | KFELNSYGIS | VIYSDGRRTFYGDSVK | GRTAGTFDT | GP_Gibbs |
| 62 | 110 nM | 4/6 | GFNLNSYGIS | VIYSDGRRTFYLDRVK | GNAAGTFDS | GP_Gibbs |
| 63 | 510 pM | 6/6 | GFTLNEYGIS | VIYSDGQRTFYGDSVK | GRTAGTFDT | GP_Gen |
| 64 | not detected | 0/6 | GFSLNWYGIS | VIYSDGRRTFYIDSVK | GKAAGTFDS | GPLM_Gen |
| 65 | not detected | 0/6 | GFGLNSYGIS | VIYSDGRRTFYIDSVK | GQIAGTFDS | GP_Gibbs |
| 66 | 3.1 nM | 6/6 | GFTLNSHGIS | VIYSDGLRTFYGDSVK | GRTAGTFDS | Ctrl |
| 67 | 100 nM | 3/6 | GFTLNEYGIS | VIYSDGRRTFYSDSVK | GRASGTFDS | Ctrl |

From the list, the first 6 with no signal in any replicate:

| CDR-H1 | CDR-H2 | CDR-H3 | group | Kd | detected |
|---|---|---|---|---|---|
| GFFLNSYCIS | VIYSDGRNTFYGDSVK | GRAAGWFNS | Rand | not detected | 0/6 |
| GDGLQEYGIS | VIYADGFRTSYANDVK | GTAAGGFMV | En_Gibbs | not detected | 0/6 |
| GFTLNDYGIS | VIYADGRRTFYGDSVK | GKMAKTGDS | Ctrl | not detected | 0/6 |
| GFTLRSYGIS | VIYRDGRRTFYKDSVK | GIAAGTFES | Ctrl | not detected | 0/6 |
| GFNLNSYGIS | VIYSDGRRTFYGDSVK | GRAAGTFDC | Ctrl | not detected | 0/6 |
| GFTLNSYGIS | VIYSDGIRTMYNDSVK | GRAAGSFDS | Ctrl | not detected | 0/6 |

The authors averaged sequences with at least three values out of six and counted those with two or fewer as poor binders. The range of this assay differs from that of the first round, and the authors advise against merging the two. Background: pairings of all heavy chain designs with three empty control strains gave a value in 1% of cases (median 120 nM, 5th percentile 7.0 nM). Values in that range, when seen in few replicates, are hard to tell from nonspecific mating.